According to patent US10066204B2, “Chemically labile peptide-presenting surfaces for cellular self-assembly” (Wisconsin Alumni Research Foundation, priority 2013, dated 2018):

Conditions: for peptide content on SAMs (XPS): over 7 days incubated in phosphate-buffered saline; for loss of surface peptide (XPS): 100% COOH SAMs, 7 days in serum-free cell culture medium (E8), no cells

CRGDS [reference compound]
peptide content on SAMs (XPS): remains unchanged

acetylated-CRGDS
peptide content on SAMs (XPS): decreases significantly

cyclo(RGDFDC)
loss of surface peptide (XPS): approximately 25% | peptide content on SAMs (XPS): decreases significantly

cyclo(RGDFDK) [reference compound]
loss of surface peptide (XPS): no significant loss of peptide | peptide content on SAMs (XPS): remains unchanged
